# scFv variants of Ab-95 (light chain) against a SARS-CoV-2 spike peptide

Data: MIT Lincoln Laboratory AlphaSeq set, Engelhart et al. 2022, doi:10.1038/s41597-022-01779-4, as distributed in FLAb.

Antigen: PDVDLGDISGINAS, a 14-residue peptide of the SARS-CoV-2 spike HR2 region.

Parent: Ab-95, a human scFv built as VH, three GGGGS repeats, VL. Only the CDRs of the light chain vary.
VH: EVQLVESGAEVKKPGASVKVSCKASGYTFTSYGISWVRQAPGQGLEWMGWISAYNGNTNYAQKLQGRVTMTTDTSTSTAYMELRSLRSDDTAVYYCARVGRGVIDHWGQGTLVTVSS
VL: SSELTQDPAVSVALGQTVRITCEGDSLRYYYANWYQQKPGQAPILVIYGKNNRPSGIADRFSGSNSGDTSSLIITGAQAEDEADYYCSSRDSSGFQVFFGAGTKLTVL

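AAYL52 was designed without a model: most single CDR substitutions and a random sample of double and triple ones. Affinity was read by AlphaSeq, a pooled yeast mating assay with surface-displayed partners. Pairs that bind mate more often; barcode pairs of the diploids are counted by sequencing. Each replicate has its own calibration line, from reference interactions of the BCL2 family. Each pool was mated in three replicate cultures.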

Positions count from residue 1 of the parent VL; R90W puts W in place of R.
Each Kd is an estimate from the mating assay, the geometric mean of the replicates in which the pair was seen; lower is stronger.
"no signal" marks a missing value. The strain was present, yet no cells mated with the target were sequenced in any replicate, which points to weak or no binding.

Kd (apparent),replicates with signal,control signals,changes
850 nM,2 of 3,2 of 9,R90W S93F F95D
no signal,0 of 3,4 of 9,L27T F95C F98C
830 nM,3 of 3,1 of 9,S89P S92A F98T
160 µM,1 of 3,1 of 9,G24K S89A G94A
930 nM,1 of 3,0 of 9,G24S Y31E N33T
no signal,0 of 3,2 of 9,S26W S93V G94E
4.2 µM,1 of 3,3 of 9,N51W D91C G94N
21 µM,1 of 3,2 of 9,G24L S88F V97I
120 µM,1 of 3,4 of 9,D25N N33V S55R
23 µM,1 of 3,3 of 9,Y31C N33P D91L
11 µM,1 of 3,3 of 9,Y30W S92W Q96T
no signal,0 of 3,2 of 9,E23P S26E S88L
15 µM,3 of 3,4 of 9,N33V N52T V97Q
no signal,0 of 3,0 of 9,L27T S93V
62 µM,1 of 3,0 of 9,S26M A32K R53E
1.4 µM,3 of 3,1 of 9,R28M S93R F95Y
no signal,0 of 3,3 of 9,E23Q N33Y S55I
6.6 µM,2 of 3,4 of 9,F95S V97S F98M
1.0 µM,3 of 3,2 of 9,D25N L27A F98A
1.0 µM,2 of 3,0 of 9,S26K R28P S89L
29 µM,2 of 3,2 of 9,G49K V97I
750 nM,3 of 3,1 of 9,A32S N52I V97A
83 µM,1 of 3,6 of 9,A32D N51F P54I
no signal,0 of 3,4 of 9,N33Y G49D S93F
440 nM,2 of 3,1 of 9,R28Y N52C S55D
150 µM,2 of 3,6 of 9,E23L N33K
13 µM,3 of 3,3 of 9,S26P A32N K50C
no signal,0 of 3,2 of 9,E23N S26M S93R
13 µM,2 of 3,2 of 9,N33Y P54R Q96E
260 µM,1 of 3,2 of 9,Y31T A32M S89R
2.0 µM,3 of 3,2 of 9,R28H R53G S92W
7.0 µM,2 of 3,5 of 9,N33F K50S G94T
76 nM,3 of 3,3 of 9,S92E G94R F98W
44 µM,2 of 3,2 of 9,E23H S26L N52Y
660 nM,3 of 3,2 of 9,R28W Y29R F95I
24 µM,3 of 3,3 of 9,E23P S26Y S89F
7.3 nM,3 of 3,4 of 9,D25E Y30A
14 µM,2 of 3,1 of 9,Y31S R53C G94L
810 nM,3 of 3,3 of 9,E23T L27C S92I
460 nM,3 of 3,6 of 9,A32W K50N G94M
6.6 µM,3 of 3,4 of 9,N51M D91N G94W
14 nM,3 of 3,6 of 9,Y29F Y30G A32T
11 µM,1 of 3,1 of 9,L27V P54N S88K
20 µM,1 of 3,0 of 9,S26R Y30L S88D
3.8 µM,3 of 3,1 of 9,S55F D91N V97R
1.4 µM,2 of 3,1 of 9,Y30P D91L G94L
4.6 µM,2 of 3,3 of 9,S26D K50V D91N
320 nM,3 of 3,3 of 9,Y31H K50L F95D
870 nM,3 of 3,1 of 9,L27N Y31S S92I
840 nM,2 of 3,4 of 9,Y31R P54F F95C
3.4 µM,3 of 3,3 of 9,D25V A32C D91P
4.0 µM,1 of 3,4 of 9,S26C R28S F95K
no signal,0 of 3,0 of 9,R28Q G49H
280 nM,1 of 3,2 of 9,E23F S55I F95W
1.1 µM,3 of 3,4 of 9,Y29P G49E Q96E
18 µM,1 of 3,0 of 9,Y29I N51Q R53N
21 µM,2 of 3,3 of 9,S26I K50L G94H
160 nM,3 of 3,1 of 9,Y30L N52Y F98W
no signal,0 of 3,1 of 9,E23P D25A R53S
3.6 µM,2 of 3,5 of 9,S26T N51S S88N
580 nM,3 of 3,2 of 9,E23K P54L V97Y
6.3 µM,3 of 3,1 of 9,Y29P S89I F95L
190 µM,1 of 3,0 of 9,Y29N A32V Q96L
5.6 µM,3 of 3,3 of 9,N52Y P54C S92M

From the list, the first 5 with no signal in any replicate:

changes,Kd (apparent),replicates with signal,control signals
L27T F95C F98C,no signal,0 of 3,4 of 9
S26W S93V G94E,no signal,0 of 3,2 of 9
E23P S26E S88L,no signal,0 of 3,2 of 9
L27T S93V,no signal,0 of 3,0 of 9
E23Q N33Y S55I,no signal,0 of 3,3 of 9

Parent in this assay: reference entry 200 nM, copy in this library 180 nM.
As a blank, each scFv also met three strains without target: over library AAYL52, 28% of these pairings were detected, typically at 8.2 µM and seldom below 800 nM. The control count says in how many pairings with the empty strains this scFv gave a signal.